Experimental data: ChEMBL document CHEMBL1138325, “Design, synthesis, in vitro, and in vivo characterization of phenylpiperazines and pyridinylpiperazines as potent and selective antagonists of the melanocortin-4 receptor” (J Med Chem, 2007)

Organism: Homo sapiens
Assay: Selectivity for human MC4R over human MC5R

## COc1cc(Cl)ccc1CC(C)C(=O)N1CCN(c2ccc(C(F)(F)F)cc2[C@@H](N)CC(C)C)CC1 (stereo partly specified)
  Selectivity ratio: 6
